# Earlier results, collected in patent US20190192060A1, “DEVICE AND METHOD FOR BLOOD VOLUME MEASUREMENT” (Oregon Health & Science University, priority 2017, published 2019).
# Conditions: in vivo; cited from earlier work
substance,measurement,value
"^131I-HSA: radiolabeled human serum albumin, blood volume indicator of the Daxor BVA-100, marketed as Volumex",time remaining in circulation,18 to 28 h
